Assay results as given in publication PMC9974930 (Journal of medicinal chemistry, 2023).

Tested on: mice
Conditions: oral 200 mg / kg, seven consecutive days

CCC(=O)N1CCCN(C(=O)C2CCCN(Cc3ccc(NC(=O)N[C@@]45C[C@@H]6C[C@@](C)(C[C@@](C)(C6)C4)C5)c(F)c3)C2)CC1 (stereo partly drawn) [G1, 1-((1r,3R,5S,7r)-3,5-Dimethyladamantan-1-yl)-3-(2-fluoro-4-((3-(4-propionyl-1,4-diazepane-1-carbonyl)piperidin-1-yl)methyl)phenyl)urea]
adverse events, survival status and body weight: no adverse events were observed
